## Antibody variant affinities, Ab-95 light chain, assay 2

The measurements come from Engelhart et al. 2022 (doi:10.1038/s41597-022-01779-4) through the FLAb antibody collection.

Binding partner: SARS-CoV-2 spike HR2 peptide, sequence PDVDLGDISGINAS.

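The parent was found by panning a naive human phage display library on the peptide. The library (AAYL52) carries one to three amino acid substitutions per variant, with no insertions or deletions. The assay is AlphaSeq: two haploid yeast populations carry antibody and antigen on their surface. Binding brings cells together so that they mate, and sequencing counts the barcode pairs among the diploids. Read counts were normalised to the haploid input and turned into Kd by a linear fit to BCL2-family pairs of known affinity, for each replicate. There are three technical replicates.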

Parent: Ab-95, a human scFv built as VH, the linker GGGGSGGGGSGGGGS, VL. Only the CDRs of the light chain vary.
VH: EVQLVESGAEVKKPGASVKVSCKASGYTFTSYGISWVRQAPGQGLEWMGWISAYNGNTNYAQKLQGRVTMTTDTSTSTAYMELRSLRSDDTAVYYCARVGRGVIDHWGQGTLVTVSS
VL: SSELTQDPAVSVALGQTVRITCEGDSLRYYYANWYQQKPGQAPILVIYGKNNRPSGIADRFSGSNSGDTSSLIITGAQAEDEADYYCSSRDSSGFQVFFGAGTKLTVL

Each variant is given by its three light chain CDRs, as the data file delimits them; those of the parent are EGDSLRYYYAN, GKNNRPS, SSRDSSGFQVF. This list gathers variants with a substitution at L27 (VL, numbered from residue 1). Values are apparent Kd, the geometric mean of the replicates that gave a signal; lower means stronger binding. "nd" marks a missing value. The strain was present, yet no cells mated with the target were sequenced in any replicate, which points to weak or no binding. Background: pairings of library AAYL52 with three empty control strains gave a value in 28% of cases (median 8.2 µM, 5th percentile 800 nM). Values in that range, when seen in few replicates, are hard to tell from nonspecific mating. In this assay the parent's reference entry averaged 200 nM; its copy inside this library read 180 nM.

* EGDSYRYYYAN / GINNRPS / SSRDSSEFQVF: 12 µM (1 of 3 replicates)
* EGDSVRYYYAN / LKNNRPS / SSRDSSGFQVY: 110 µM (1 of 3 replicates)
* EGDSRRYYLAN / GCNNRPS / SSRDSSGFQVF: 6.7 µM (1 of 3 replicates)
* EGDSERYDYAN / GKNLRPS / SSRDSSGFQVF: 440 nM (3 of 3 replicates)
* EGDSKRYSYAN / GKNNRPN / SSRDSSGFQVF: 630 nM (3 of 3 replicates)
* EGDSTRYYYAN / GKNNRPW / SSRQSSGFQVF: 470 nM (1 of 3 replicates)
* EGDSGRYYYQN / GKNNRPS / SSRDSSGFQEF: 12 µM (1 of 3 replicates)
* EGDSTRYYYAN / GKNNRPS / SSRDSSGFQVF: 1.1 µM (1 of 3 replicates)
* EGDSHRYYYAF / GKNNRPS / SSRDSSDFQVF: 25 µM (1 of 3 replicates)
* EGDSFWYYYAN / GKNNRPS / STRDSSGFQVF: 1.6 µM (3 of 3 replicates)
* EGDWSRYTYAN / GKNNRPS / SSRDSSGFQVF: 300 nM (3 of 3 replicates)
* EGDSHRYYYAN / AKNNRPS / SSRDSSGFQVF: nd (0 of 3 replicates)
* HGDSNRYYYAN / GNNNRPS / SSRDSSGFQVF: 760 nM (2 of 3 replicates)
* EGDSMRYYYAN / GKNNSPS / SSMDSSGFQVF: 91 µM (1 of 3 replicates)
* EGDSDRYYYAN / GKNNRPS / SSRCSSGFKVF: 11 µM (1 of 3 replicates)
* EGDSWRYYYAN / GKNNRVS / SSRDSSYFQVF: 11 µM (1 of 3 replicates)
* EGDSVRSYYAN / GKNNRPS / SYRDSSGFQVF: nd (0 of 3 replicates)
* EGCSARNYYAN / GKNNRPS / SSRDSSGFQVF: 400 nM (3 of 3 replicates)
* EGDDYRYYYAG / GKNNRPS / SSRDSSGFQVF: 46 µM (2 of 3 replicates)
* AGDSPRYYYAN / GKNNRPS / FSRDSSGFQVF: 11 µM (1 of 3 replicates)
* EGDSARYYYAN / GKNNRPE / SSRDSSGFQVF: 4.6 µM (3 of 3 replicates)
* EGDSVRYYYAN / GKNNRPS / SSRDSYGFEVF: 15 µM (1 of 3 replicates)
* EGDNEKYYYAN / GKNNRPS / SSRDSSGFQVF: 5.3 µM (3 of 3 replicates)
* EGDSFRYYYAN / GKNNRPS / KSRDSSGFQVF: nd (0 of 3 replicates)
* EGPSCRYYYAN / GKNNRPS / SSRDSSGFQVF: 9.3 µM (3 of 3 replicates)
* EGDSIRYYYAN / TKNNRPS / SSRDSSGFLVF: nd (0 of 3 replicates)
* EGDSVRIYYAN / GKNNRPS / SSRDSSGFQGF: 28 µM (2 of 3 replicates)
* EGDSKRYYYAN / GKNNRNS / SSIDSSGFQVF: 570 nM (2 of 3 replicates)
* EGDSWRYYYAN / GKNNRPS / SSRGSSGRQVF: 520 nM (3 of 3 replicates)
* EGDSVRYYYAN / GKNNRPS / SIRDSSTFQVF: 17 µM (1 of 3 replicates)
* EGDSNRYYYAN / GKMNKPS / SSRDSSGFQVF: 13 µM (1 of 3 replicates)
* DGYSPRYYYAN / GKNNRPS / SSRDSSGFQVF: 11 µM (2 of 3 replicates)
* EGDSMRYYYAN / GKGNRPS / SSRYSSGFQVF: 5.0 µM (3 of 3 replicates)
* EGDSTRYSYAN / GKNNRPS / SSRDSSGFQKF: 310 nM (3 of 3 replicates)
* EGDSHRYYYAN / GKNNRPS / SPRDSSVFQVF: nd (0 of 3 replicates)
* EGDSWRNYYAN / GKNNRPW / SSRDSSGFQVF: 7.5 µM (2 of 3 replicates)
* EGDSFRYYYAN / GKNNRPS / SSRASSGFQVF: 1.0 µM (3 of 3 replicates)
* EGDSNRYMYAN / GKNNRPS / SSRDSSGGQVF: 4.1 µM (2 of 3 replicates)
* EGDSNRYYYAN / GKMNRSS / SSRDSSGFQVF: 1.7 µM (2 of 3 replicates)
* EGDSPRYYYAN / GKNNNPS / SSRDSSGFYVF: 10 µM (2 of 3 replicates)

For reference, 3 entries of the list once more:

CDR-L1	CDR-L2	CDR-L3	Kd	detected
EGDSVRYYYAN	GKNNRPS	SIRDSSTFQVF	17 µM	1/3
EGDSKRYYYAN	GKNNRNS	SSIDSSGFQVF	570 nM	2/3
HGDSNRYYYAN	GNNNRPS	SSRDSSGFQVF	760 nM	2/3